In PubChem BioAssay AID2675 (National Center for Advancing Translational Sciences (NCATS), 2010):
The list shows a part of the results, in another mix than the full data. Inconclusive results are not listed. Active and inactive are the calls of the source. Calls follow the shape of the dose curve; as a rule, active = well fitted inhibition curve with a large enough effect in the signal ratio, with a control signal flat (not every such curve was filed as active); inconclusive = small, poorly fitted or top-dose-only effect, or effect the other way, or a change in a side signal; inactive = no such curve, though single readings can be large or run the other way; the % refers to the signal ratio.

Protein sequences, listed by entry. Tags and fused reporters are not part of them.
UniProt Q9NR56, whole entry: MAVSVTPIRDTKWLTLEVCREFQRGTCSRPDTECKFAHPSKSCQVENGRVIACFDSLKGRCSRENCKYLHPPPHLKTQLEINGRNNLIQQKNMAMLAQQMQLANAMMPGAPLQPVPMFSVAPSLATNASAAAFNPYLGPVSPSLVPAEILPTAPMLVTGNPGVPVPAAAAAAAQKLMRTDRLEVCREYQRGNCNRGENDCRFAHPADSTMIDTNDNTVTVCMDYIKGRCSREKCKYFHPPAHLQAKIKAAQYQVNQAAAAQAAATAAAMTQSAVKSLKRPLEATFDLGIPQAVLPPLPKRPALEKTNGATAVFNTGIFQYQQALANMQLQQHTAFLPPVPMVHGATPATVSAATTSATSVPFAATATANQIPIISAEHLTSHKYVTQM

molecular target: Muscleblind-like protein 1 (Homo sapiens) (UniProt Q9NR56); assay: qHTS Assay for Inhibitors of MBNL1-poly(CUG) RNA binding; details: TR-FRET MBNL1-His/biotin-(CUG)12 binding, 665/545 ratio; at 57.5 µM (top of the series)
% is scaled to controls: 0 for no effect and ±100 for the full control effect.

SMILES | activity change, negative = inhibition
NC(=O)Nc1ccc([As](=O)(O)O)cc1 | inactive: 4.49%
